The Ki is the dissociation constant of the complex between target and ligand, obtained from inhibition or displacement. High values mean lower affinity, low ones higher affinity.

Protein sequences, listed by entry. Tags and fused reporters are not part of them.
UniProt P28907, whole entry: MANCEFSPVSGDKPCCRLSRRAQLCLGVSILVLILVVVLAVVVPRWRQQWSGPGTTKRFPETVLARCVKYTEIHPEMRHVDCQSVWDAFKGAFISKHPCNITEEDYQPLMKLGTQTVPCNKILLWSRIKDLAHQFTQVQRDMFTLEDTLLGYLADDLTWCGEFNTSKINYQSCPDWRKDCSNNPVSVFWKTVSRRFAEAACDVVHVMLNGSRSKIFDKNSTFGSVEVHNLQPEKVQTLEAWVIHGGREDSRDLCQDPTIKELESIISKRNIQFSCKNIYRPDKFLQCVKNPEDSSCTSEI

The assay has as its target human CD38 (Homo sapiens, UniProt P28907). Put plainly: CD38 Competition Binding Assay (fluorescence polarisation). The conditions noted are these: Table 2; reference bicycle ligands, TBMB or TATA scaffold (tracer differs by scaffold); evaluated as described in GB1800610.6. As to the method:
CD38 Competition Binding Assay Affinity of various bicycle peptide compounds for human CD38 (Ki) was determined using a fluorescence polarisation assay, using the method reported by Lea et al (Expert Opin Drug Discov. 2011 6(1): 17-3) and using the following fluorescently labelled peptides ACTPCADFPIWGCA-Sar6-K(F1) for TBMB derivatives and ACYWNPFTGCYTCA-Sar6-K(F1) for TATA derivatives where Fl is a fluorescein molecule.
(In general: In fluorescence polarisation assays a small probe gives low polarisation when free and higher when bound to something large.)
In turn, “(B-Ala)-Sar10-ACVPCADFPIWYC [66-03-00-N006]” yielded an inhibition constant (Ki) of 43.7 ± 14.7 nM.
For the substance “ACAWCSDPIDGFCA-Sar6-K(Biotin) [66-10-02-N001]”, the Ki turned out to be 2550 nM.
With ACDFTMPCENWKYCA [66-05-07-N001], the inhibition constant (Ki) was determined as 2530 nM.
The value for ACDFTMPCPNWNACA [66-05-09-N001] was 3950 nM.
The value for ACDFTMPCQMWEQCA [Example 66-05-N002] was 4060 ± 75.5 nM.
“ACDWCIDPGVSFCA-Sar6-K(Biotin) [66-10-03-N001]”: the affinity, expressed as Ki, was 3140 nM.
In the case of ACDWCTDNIPGICA [Example 66-13-N001], the affinity, expressed as Ki, was 357 nM.
ACDYCIRLGLTGCA [Example 66-12-N001] had an inhibitory constant (Ki) of 520 nM.
Consider ACDYCVRLGLTGCA [Example 66-09-N001], for which the inhibitory constant (Ki) was found to be 1260 nM.
Next, ACFELDGDCFDWTHECA [66-08-34-N001]: 1620 nM; ACFELDGECFDLDNQCA [66-08-54-N001]: 477 ± 122 nM.
The substance ACFELDGECFHFGEPCA [66-08-46-N001] registered an inhibitory constant (Ki) of 1040 ± 170 nM. Compared with the last substance, the Ki is about 2.2-fold higher.
As to ACFELDGECFNIGSKCA [66-08-57-N001], the affinity corresponds to a Ki of 1100 ± 44.1 nM.
As for ACFELDGECFSFPGTCA [66-08-50-N001], the Ki worked out at 196 ± 99 nM. This Ki is about 5.6-fold lower than that of the substance before.
The value for ACFELDGECFSWPYPCA [66-08-51-N001] was 4750 ± 490 nM; that for ACFELDGNCFDWTHECA [66-08-18-N001] was 980 nM.
The value for ACFELDGSCFDFDHECA [66-08-09-N001] was 611 nM; that for ACFELDGTCFDWAQECA [Example 66-01-N002] was 1180 ± 286 nM.
Next, ACFHLDGECFDLAKTCA [66-08-45-N001]: 8190 nM; ACFHLDGECFDLENTCA [66-08-44-N001]: 620 nM.
As for ACFHLDGECFDYEHECA [66-08-20-N001], the affinity corresponds to a Ki of 2160 nM.
Next, ACFHLDGVCFDWTHECA [66-08-36-N001]: 558 nM; ACFKLDGECFDWTHECA [66-08-06-N001]: 677 nM; ACFKLDGVCFDLFHECA [66-08-04-N001]: 3820 nM.
The value for ACFLLDGECFDLIGECA [66-08-49-N001] was 1360 ± 151 nM; that for ACFLLDGECFDWAQECA [66-08-43-N001] was 131 nM; that for ACFLLDGECFDWMQECA [66-08-33-N001] was 409 nM.
Next, ACFQLDGECFDIYRECA [66-08-17-N001]: 245 nM.
For the substance ACFQLDGECFDTSHECA [66-08-24-N001], the affinity, expressed as Ki, was 2970 nM. Against the preceding substance, the Ki is about 12-fold higher.
Next, ACFRLDDECFDWTHECA [66-08-28-N001]: 1160 nM; ACFRLDGECFDISNECA [66-08-56-N001]: 1150 ± 149 nM.
Turning to ACFRLDGECFDMGQECA [66-08-30-N001], the inhibitory constant (Ki) came out at 6950 nM. This Ki is about 6-fold higher than that of the substance before.
The value for ACFRLDGVCFDLDDECA [66-08-29-N001] was 988 nM; that for ACFSLDGACFDWTHECA [66-08-26-N001] was 987 nM; that for ACFSLDGECFDIASECA [66-08-22-N001] was 1050 nM.
The value for ACFSLDGECFDLSGECA [66-08-02-N001] was 305 nM; that for ACFTLDGACFDLDGECA [66-08-31-N001] was 821 nM; that for ACFTLDGACFDWTHECA [Example 66-08-N002] was 1100 nM.
Next, ACFTLDGECFDLDGWCA [66-08-48-N001]: 178 ± 60.8 nM; ACFTLDGECFDVNRECA [66-08-13-N001]: 905 nM; ACFTLDGECFDWDAECA [66-08-07-N001]: 230 nM.
As for ACFTLDGECFDWTHECA [66-08-03-N001], affinity was put at a Ki of 139 nM.
Next, ACFTLDGECFLLGENCA [66-08-52-N001]: 563 ± 211 nM; ACFTLDGQCFDWTHECA [66-08-32-N001]: 794 nM; ACFTLDGTCFDWTHECA [66-08-35-N001]: 744 nM.
Next, ACFVLDGECFDYYEECA [66-08-27-N001]: 1220 nM.
Substance ACFVLDGECFEIGERCA [66-08-47-N001] yielded an inhibition constant Ki of 237.5 ± 0.98 nM.
ACFWLDGECFDFGGCA [66-08-58-N001]: affinity was put at a Ki of 154 ± 17.6 nM.
The value for ACFWLDGECFDLGGQCA [66-08-53-N001] was 119 ± 27.4 nM; that for ACFWLDGECFDLYGGCA [66-08-55-N001] was 105 ± 1.96 nM.
In turn, ACFWLDGECFDWNHECA [66-08-01-N001] gave a Ki of 43.3 ± 7.69 nM.
The value for ACFWLDHECFDWTHECA [66-08-15-N001] was 258 nM; that for ACFYLDGTCFDWTHECA [66-08-41-N001] was 1200 nM; that for “ACGWCSDQIDGFCA-Sar6-K(Biotin) [66-10-01-N001]” was 2960 nM.
Next, ACIFDYDCDAWSACA [Example 66-06-N002]: 7250 nM; ACINYANICLDTEKMCA [Example 66-18-N001]: 6890 nM.
ACIPCADFPIFTCA [66-03-29-N003] registered a Ki of 139 ± 25.5 nM.
In the case of ACIPCADFPISFCA [66-03-26-N003], the Ki amounted to 160 ± 13.7 nM.
Next, ACIPCADFPISVCA [66-03-24-N003]: 170 ± 20.6 nM; ACIPCADFPIWGCA [66-03-16-N001]: 114 nM; ACIRYGDICFHPDYTCA [Example 66-17-N001]: 1170 nM.
For the substance ACIRYGDICYDPDHSCA [66-17-01-N001], the Ki was 260 nM.
The value for ACLYNPFTGCYDCA [66-50-09-N001] was 749 ± 64.7 nM; that for ACMWNPFTGCYACA [66-50-08-N001] was 158 ± 68.2 nM; that for “ACSWCVDDGLPFCA-Sar6-K(Biotin) [66-10-04-N001]” was 3920 nM.
As for ACTPCADFPIHTCA [66-03-02-N001], the affinity, expressed as Ki, was 995 nM.
The value for ACTPCADFPILDCA [66-03-10-N001] was 1700 nM; that for ACTPCADFPILTCA [66-03-07-N001] was 257 nM; that for ACTPCADFPIWGCA [Example 66-03-N002] was 198 ± 29.1 nM.
For “ACTPCADFPIWGCA-Sar6-K(Biot) [Example 66-03-N003]”, the Ki turned out to be 833 ± 357 nM.
ACTPCADFPIWSCA [66-03-01-N001]: the Ki was 471 nM. Against the preceding substance, the Ki is about 1.8-fold lower.
For the substance ACTPCADFPIWYCA [66-03-06-N001], the affinity corresponds to a Ki of 64 ± 8.21 nM.
Substance ACTPCADFPIYGCA [66-03-09-N001] had an inhibition constant (Ki) of 1050 nM.
ACTPCADMPIWTCA [66-03-15-N001]: the affinity corresponds to a Ki of 274 nM. Compared with the last substance, the Ki is about 3.8-fold lower.
Regarding ACTWCVDDETWNCA [Example 66-11-N001], the inhibition constant (Ki) worked out at 767 nM.
As to ACTWCVDDGLSFCA [Example 66-10-N001], affinity was put at a Ki of 270 nM.
Next, ACVACADFPIWGCA [66-03-08-N001]: 174 nM; ACVHCADFPIWGCA [66-03-03-N001]: 61 ± 1.96 nM.
Next, ACVKCADFPIWGCA [66-03-11-N001]: 41.3 ± 14.3 nM.
Next, ACVMCADFPIWGCA [66-03-05-N001]: 155 nM; ACVNFGSVCWDPDSRCA [Example 66-02-N002]: 3660 ± 319 nM; ACVPCADFPIFTCA [66-03-28-N002]: 44.5 ± 14.7 nM.
Turning to ACVPCADFPISFCA [66-03-25-N002], the inhibition constant Ki was 208 ± 26.5 nM.
The value for ACVPCADFPISVCA [66-03-27-N003] was 143 ± 27.4 nM.
Next, ACVPCADFPIWGCA [66-03-04-N001]: 58.5 ± 33.9 nM; ACVPCADFPIWWCA [66-03-00-N005]: 110 ± 51 nM.
The substance ACVPCADFPIWYCA [66-03-00-N004] had an inhibitory constant (Ki) of 35.3 ± 6.55 nM. This Ki is about 3.1-fold lower than that of the substance before.
The substance ACYWNPFAACYDCA [66-50-06-N001] showed a Ki of 935 nM.
The value for ACYWNPFIQCSPCA [66-50-03-N001] was 1700 ± 872 nM; that for ACYWNPFMACFDCA [66-50-11-N001] was 684 ± 158 nM.
In turn, ACYWNPFMGCYSCA [66-50-12-N001] registered a Ki of 315 ± 363 nM.
ACYWNPFMGCYTCA [66-50-01-N001] came in with an inhibitory constant (Ki) of 393 ± 141 nM.
For the substance ACYWNPFMGCYVCA [66-50-14-N001], the inhibition constant Ki was 940 ± 285 nM.
Next, ACYWNPFSGCWDCA [66-50-10-N001]: 335 ± 56.8 nM.
ACYWNPFSGCYSCA [66-50-07-N001]: the inhibition constant (Ki) was 498 ± 199 nM.
Next, ACYWNPFTACFACEEP [66-50-21-T001-N001]: 337 ± 229 nM; ACYWNPFTACFSCDDD [66-50-18-T01-N001]: 77.5 ± 51.9 nM.
Turning to ACYWNPFTACWACEPD [66-50-20-T001-N001], the inhibitory constant (Ki) is 85 ± 116 nM.
The value for ACYWNPFTACWSCDTS [66-50-22-T001-N001] was 182 ± 46.1 nM; that for ACYWNPFTACWSCEND [66-50-16-T01-N001] was 90 ± 49 nM.
The value for ACYWNPFTACYSCTEN [66-50-19-T002-N001] was 315 ± 4.9 nM; that for ACYWNPFTACYTCA [66-50-05-N001] was 438 ± 192 nM.
The value for ACYWNPFTACYVCDVP [66-50-19-T001-N001] was 575 ± 220 nM; that for ACYWNPFTGCYACDST [66-50-15-T01-N001] was 104 ± 90.2 nM.
ACYWNPFTGCYACEAD [66-50-15-T02-N001]: the affinity corresponds to a Ki of 179 ± 125 nM.
The value for ACYWNPFTGCYSCA [66-50-02-N001] was 97.8 ± 22.7 nM; that for ARNECFWNPFTGCYSCA [66-50-17-T02-N001] was 260 ± 161 nM; that for ASDNCFWNPFTGCYSCA [66-50-17-T01-N001] was 358 ± 187 nM.
With “Ac-ACFHLDGECFDLENTCA-Sar6-K(Biot) [66-08-01-N003]”, the Ki was 38.5 ± 10.8 nM.
Next, Ac-ACFMLDGECFDLNKECA [66-08-05-N001]: 1370 nM; Ac-CFWLDGECFDWNHEC [66-08-01-N004]: 99 nM.
Next, “Ac-CFWLDGECFDWNHECA-Sar6-K [66-08-01-N005]”: 211 nM.
